{"source": "paper PMC3288355", "about": "(Current Biology, 2012)", "key": {"[1]": {"biological_target": "T1, pyrene actin (UniProt P68135 1-377, pyrene label)", "test": "other fluorescence titration"}, "[2]": {"biological_target": "T1, pyrene actin", "test": "stopped-flow fluorescence"}}, "data": [{"binder": "EEREPAANPYDFRRLLRKTSQRRRLVQQS (domain or fragment)", "note": "[GST-THDII (MYO3A tail homology domain II fused to GST)]", "values": [{"measurement": "Kd", "setting": "[1]", "result": "1200 ± 200", "unit": "nM"}, {"measurement": "koff", "setting": "[2]", "result": "54.8 ± 6.4", "unit": "s⁻¹"}, {"measurement": "kon", "setting": "[2]", "result": "4.66e+07 ± 2e+06", "unit": "M⁻¹ s⁻¹"}]}]}
